Data from publication PMC11684019, “Unveiling the Antimycobacterial Potential of Novel 4-Alkoxyquinolines: Insights into Selectivity, Mechanism of Action, and In Vivo Exposure” (Journal of Medicinal Chemistry, 2024).

Settings: mice, 300 mg/kg gavage

CCc1ccc(NCCCOc2cc(C)nc3ccc(Br)cc23)cc1 [8t, N-(3-((6-bromo-2-methylquinolin-4-yl)oxy)propyl)-4-ethylaniline]
Plasma concentration at 8 h relative to MIC against H37Rv: 196 fold
